{"source": "patent US20050096381A1", "about": "“Derivatives of isoflavones” (YEDA & MEDICAL RESEARCH, priority 2002, published 2005)", "system": "E304 endothelial cells (expressing mainly ERα)", "test": "DNA synthesis by [3H]-thymidine incorporation in E304 cells", "details": "cells bearing mainly ERα", "data": [{"substance": "6-carboxymethyl biochanin A daunomycin conjugate [Cbio-daunomycin]", "values": [{"measurement": "cytotoxic activity towards E304 cells (in words)", "value": "potent cytotoxic activity"}]}]}
